## Apparent affinities of Ab-14 variants for a coronavirus HR2 peptide

Reference: Li et al. 2023, doi:10.1038/s41467-023-39022-2. File: FLAb, binding data.

The target is the same throughout: PDVDLGDISGINAS, from the HR2 region of SARS-CoV-2 spike.

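Designed CDR sequences, proposed from the first random library and measured here. Their group label is 14L_GP_Gibbs (GP: Gaussian process model; Gibbs: Gibbs sampling; a sequence that several methods proposed may carry one label only). In AlphaSeq, yeast of one mating type display the scFv and yeast of the other type display the target. Pairs that bind mate more often; barcode pairs of the diploids are counted by sequencing. Scores were corrected for input abundance and mapped to Kd with protein pairs of known affinity run in the same pool. Mating was done six times.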

Ab-14 is the parent antibody, in scFv form: VH, then three GGGGS repeats, then VL. The heavy chain is unchanged in all variants.
VH: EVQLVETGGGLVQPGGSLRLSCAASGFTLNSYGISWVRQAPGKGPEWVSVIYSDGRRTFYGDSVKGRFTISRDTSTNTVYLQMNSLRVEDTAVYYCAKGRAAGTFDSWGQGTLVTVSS
VL: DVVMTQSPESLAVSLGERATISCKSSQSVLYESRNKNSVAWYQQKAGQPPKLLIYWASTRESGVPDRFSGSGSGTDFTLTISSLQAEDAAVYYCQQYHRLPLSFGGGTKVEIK

Variants are written as CDR1, CDR2 and CDR3 of the light chain (limits as in the source). Parent: KSSQSVLYESRNKNSVA, WASTRES, QQYHRLPLS. Values are log10 of the apparent Kd in nM; lower means stronger binding. Replicates are averaged; those with no signal do not enter the mean. A pair that was not seen in that replicate is written "nd"; this usually means weak binding, but a binder can also be missed. In the paper, a design with two or fewer of six values counts as a poor binder. Of ten entries with the parent sequence, four were seen in most replicates (averages 0.34 to 2.37), three in one and three in none, so single entries are noisy. Background: pairings of all light chain designs with three empty control strains gave a value in 4% of cases (median 2.64, 5th percentile 1.59). Values in that range, when seen in few replicates, are hard to tell from nonspecific mating. Also given: how often the same scFv was detected with the empty control strains, with their mean in brackets. A sequence measured in both rounds can read differently, since the two assays cover different ranges.

{"CDR-L1": "KLSMSVQYEARMKNSVA", "CDR-L2": "EASTRES", "CDR-L3": "QQYHRLPLS", "replicates, log10 nM": "0.85 / 0.14 / 0.16 / -0.29 / 0.00 / -0.03", "mean log10 Kd (nM)": "0.14", "control signals": "0/18"}
{"CDR-L1": "KLSWSVGYESRNPNNVA", "CDR-L2": "NASTREL", "CDR-L3": "QQYHRLPLS", "replicates, log10 nM": "-0.06 / -0.36 / -0.27 / -0.16 / -0.39 / -0.12", "mean log10 Kd (nM)": "-0.23", "control signals": "1/18 (2.37)"}
{"CDR-L1": "KLQFLELQLSRNKNSVA", "CDR-L2": "SASTRES", "CDR-L3": "QQYHRLPLS", "replicates, log10 nM": "2.68 / nd / 1.83 / nd / nd / 2.10", "mean log10 Kd (nM)": "2.20", "control signals": "0/18"}
{"CDR-L1": "KLSCGVDYWSRNKNSVA", "CDR-L2": "GASTRES", "CDR-L3": "QQYHRLPLS", "replicates, log10 nM": "0.22 / 0.45 / 0.58 / 0.56 / 0.59 / 0.60", "mean log10 Kd (nM)": "0.50", "control signals": "0/18"}
{"CDR-L1": "KLMWSMQYLSRNKNSVA", "CDR-L2": "HASYRES", "CDR-L3": "QQYHRLPLS", "replicates, log10 nM": "1.52 / 1.40 / nd / 2.10 / 1.64 / nd", "mean log10 Kd (nM)": "1.67", "control signals": "0/18"}
{"CDR-L1": "KIQQFYEMESRNKNSVA", "CDR-L2": "SASTRMS", "CDR-L3": "QQYHRLPLS", "replicates, log10 nM": "0.07 / -0.27 / -0.17 / -0.25 / -0.17 / -0.24", "mean log10 Kd (nM)": "-0.17", "control signals": "2/18 (2.42)"}
{"CDR-L1": "KYQQQVLTEDRNKNSVA", "CDR-L2": "NASTRES", "CDR-L3": "QQYHQLPLS", "replicates, log10 nM": "0.29 / 0.40 / 0.31 / 0.18 / 0.27 / 0.68", "mean log10 Kd (nM)": "0.36", "control signals": "0/18"}
{"CDR-L1": "KLEQGVDMESRNKNSVA", "CDR-L2": "NASMRES", "CDR-L3": "QQYHRLPLS", "replicates, log10 nM": "0.14 / 0.14 / -0.11 / 0.09 / 0.08 / 0.30", "mean log10 Kd (nM)": "0.11", "control signals": "2/18 (2.22)"}
{"CDR-L1": "KVSPSWEYEDRNKNSVA", "CDR-L2": "QASQRCS", "CDR-L3": "QQYHRLPLS", "replicates, log10 nM": "-0.12 / -0.36 / -0.42 / -0.71 / -0.51 / -0.27", "mean log10 Kd (nM)": "-0.40", "control signals": "0/18"}
{"CDR-L1": "LLSQSVLLESRNWNAVA", "CDR-L2": "HASTRMD", "CDR-L3": "QQYHRLPLS", "replicates, log10 nM": "-0.18 / -0.07 / -0.14 / -0.13 / -0.22 / 0.15", "mean log10 Kd (nM)": "-0.10", "control signals": "0/18"}
{"CDR-L1": "KLQQSELYESRNVNSVA", "CDR-L2": "DASTRES", "CDR-L3": "QQYHRLPLS", "replicates, log10 nM": "-0.08 / -0.11 / -0.31 / -0.29 / -0.22 / 0.18", "mean log10 Kd (nM)": "-0.14", "control signals": "1/18 (1.12)"}
{"CDR-L1": "KLQQSWLYESRNINNVA", "CDR-L2": "NCSKRES", "CDR-L3": "QQYHRLPLS", "replicates, log10 nM": "0.49 / 1.68 / 1.02 / 0.90 / 1.00 / 0.99", "mean log10 Kd (nM)": "1.01", "control signals": "0/18"}
{"CDR-L1": "KLQQSVLDEERNDNSVA", "CDR-L2": "WASHRES", "CDR-L3": "QQYHRLPLS", "replicates, log10 nM": "0.63 / 0.84 / 1.19 / 0.84 / 0.63 / 1.20", "mean log10 Kd (nM)": "0.89", "control signals": "0/18"}
{"CDR-L1": "KVSGLGLYGQRNKNSVA", "CDR-L2": "EANTRED", "CDR-L3": "QQYHRLPLS", "replicates, log10 nM": "-0.13 / -0.25 / -0.28 / -0.37 / -0.27 / -0.23", "mean log10 Kd (nM)": "-0.25", "control signals": "4/18 (2.94)"}
{"CDR-L1": "KSSCSVDQEDRNSNSVA", "CDR-L2": "NASTREL", "CDR-L3": "QQYHRLPLS", "replicates, log10 nM": "0.58 / 0.43 / 0.22 / 0.30 / 0.44 / 0.61", "mean log10 Kd (nM)": "0.43", "control signals": "1/18 (2.16)"}
{"CDR-L1": "KVSQSEDYGSRNKWSVA", "CDR-L2": "NASTRES", "CDR-L3": "QQYHRLPLS", "replicates, log10 nM": "0.28 / 0.09 / 0.15 / 0.02 / -0.04 / 0.29", "mean log10 Kd (nM)": "0.13", "control signals": "0/18"}
{"CDR-L1": "KLSMSEWMGSRNKNSVA", "CDR-L2": "SANTREE", "CDR-L3": "QQYHRLPLS", "replicates, log10 nM": "0.25 / 0.07 / 0.25 / 0.15 / 0.16 / 0.31", "mean log10 Kd (nM)": "0.20", "control signals": "1/18 (2.20)"}
{"CDR-L1": "KVSQSDNYESRNHNSVA", "CDR-L2": "HASTRSS", "CDR-L3": "QQYHRLPLS", "replicates, log10 nM": "0.53 / 0.59 / 0.49 / 0.28 / 0.36 / 0.51", "mean log10 Kd (nM)": "0.46", "control signals": "2/18 (2.10)"}
{"CDR-L1": "KIDISELGVSRNKNSVA", "CDR-L2": "NASTRME", "CDR-L3": "QQYHRLPLS", "replicates, log10 nM": "0.73 / 0.04 / 0.96 / 0.81 / 0.47 / 1.35", "mean log10 Kd (nM)": "0.73", "control signals": "0/18"}
{"CDR-L1": "KMAQGWMYESRNKNSVA", "CDR-L2": "NASYREM", "CDR-L3": "QQYHRLPLS", "replicates, log10 nM": "-0.04 / -0.46 / -0.24 / -0.51 / -0.22 / -0.02", "mean log10 Kd (nM)": "-0.25", "control signals": "0/18"}
{"CDR-L1": "KSQQSVLDEERNDNSVA", "CDR-L2": "WASHRES", "CDR-L3": "QQYHRLPLS", "replicates, log10 nM": "0.96 / 1.64 / 1.23 / 1.17 / 1.82 / 0.98", "mean log10 Kd (nM)": "1.30", "control signals": "0/18"}
{"CDR-L1": "WISQSVLYESRDKNSVA", "CDR-L2": "NASTRLS", "CDR-L3": "QQYHRLPLS", "replicates, log10 nM": "0.34 / 0.26 / 0.15 / 0.16 / 0.28 / 0.44", "mean log10 Kd (nM)": "0.27", "control signals": "2/18 (2.96)"}

Extract of 2 entries:

{"CDR-L1": "KSQQSVLDEERNDNSVA", "CDR-L2": "WASHRES", "CDR-L3": "QQYHRLPLS", "replicates, log10 nM": "0.96 / 1.64 / 1.23 / 1.17 / 1.82 / 0.98", "mean log10 Kd (nM)": "1.30", "control signals": "0/18"}
{"CDR-L1": "KIDISELGVSRNKNSVA", "CDR-L2": "NASTRME", "CDR-L3": "QQYHRLPLS", "replicates, log10 nM": "0.73 / 0.04 / 0.96 / 0.81 / 0.47 / 1.35", "mean log10 Kd (nM)": "0.73", "control signals": "0/18"}